Experimental data from US20100021903A1, “Use of Genetic Determinants in Cardiovascular Risk Assessment” (priority 2006, published 2010).

Tested on: hypertensive patients with coronary artery disease

**Q.** What does the source list for `CC(C)NCC(O)COc1ccc(CC(N)=O)cc1` (stereo not drawn) [atenolol]?
**A.** Modification of the adverse effect of ADRB2 46G-79C-523C haplotype on primary outcome (Example 4): Neither atenolol nor verapamil SR modified the adverse effect of this haplotype; Systolic and diastolic blood pressure control (patients treated with verapamil vs atenolol, FIG. 23): did not differ; Risk for the primary outcome, atenolol- vs verapamil SR-treated patients (within each ADRB1 145A-1165C haplotype strata): similar
